Assay results taken from patent publication US8412459B2, “Method for determining the allergic potential of a compound” (Vlaamse Instelling Voor Technologisch Onderzoek (VITO), priority 2006, dated 2013).

Key:
[1] = a priori known, from literature / in vivo tests; cited from earlier work
CD34-DCs = assay: Microarray gene expression in CD34-DCs; classification by LFC of gene 1 (SEQ ID NO 1, PBEF1) after 12 hours exposure; details: Ni and BC removed from the data base and used as test compounds

Nickel Chloride or Nickel Sulphate
known sensitizing classification / strength [1]: moderate sensitizer | ACD sensitizing potential predicted by the classification statement (LFC_12 averaged over a few individuals larger than zero) (CD34-DCs): has an ACD sensitizing potential
